The values that follow come from article PMC6685155, “Simultaneous UPLC–TQ-MS/MS determination of six active components in rat plasma: application in the pharmacokinetic study of Cyclocarya paliurus leaves” (Chinese Medicine, 2019).

The data set in a line: Pharmacokinetic study in rats after oral administration of the CP extract (UPLC–TQ-MS/MS of plasma). Format: in vivo, Sprague–Dawley rats. To be noted: rat plasma, single oral gavage of CP extract 10.5 g/kg, n=6, mean ± SD. The protocol:
Plasma samples were thawed at room temperature before analysis. Then, 10 μl of IS solution (20 μg/ml) and 200 μl of methanol were added to the plasma sample (90 μl) in a 1.5 ml Eppendorf tube. The mixture was vortexed for 1 min and centrifuged at 12,000×g for 10 min at 4 °C to deproteinize. Thereafter, 2 μl of the supernatant was injected into the UPLC–TQ/MS system for analysis.
Six healthy male Sprague–Dawley rats were fasted for 12 h with free access to water prior to the experiment. The CP extract was administered to rats by oral gavage at a dose of 10.5 g/kg body weight. Blood samples of approximately 0.5 ml were collected at 15 and 30 min and at 1 h, 2 h, 3 h, 4 h, 6 h, 8 h, 10 h, 12 h, and 24 h in heparinized centrifuge tubes from the ophthalmic vein using a sterile capillary tube under anesthesia after oral administration of the CP extract. Following centrifugation at 4000×g for 10 min at 4 °C, plasma samples were transferred to polypropylene tubes and stored at − 80 °C until analysis.
The concentrations of six analytes in plasma at different time points were expressed as mean ± SD, which was calculated from the daily calibration curve. All the pharmacokinetic parameters were processed through non-compartmental analysis using the DAS 3.0 pharmacokinetic program. The maximum plasma concentration (Cmax) and time to reach the maximum concentrations (Tmax) were obtained directly from the curve.

The term Tmax denotes the time at which the peak concentration occurs. By Cmax is commonly meant the highest concentration seen after dosing. Regarding kaempferol-3-O-rhamnoside, the “AUC0−t” value turned out to be 553.16 ± 270.45 ng·h/mL, the “AUC0−∞” value amounted to 614.20 ± 254.97 ng·h/mL, the Tmax was found to be 0.42 ± 0.13 h and the t1/2 is 2.42 ± 1.29 h. Besides, for the setting “non-compartmental”, the highest concentration (Cmax) amounted to 263.55 ± 119.77 ng/mL.
